{
  "sequences": {"note": "The chains behind the UniProt entries cited, without tags or fusion partners.", "UniProt P14416, whole entry": "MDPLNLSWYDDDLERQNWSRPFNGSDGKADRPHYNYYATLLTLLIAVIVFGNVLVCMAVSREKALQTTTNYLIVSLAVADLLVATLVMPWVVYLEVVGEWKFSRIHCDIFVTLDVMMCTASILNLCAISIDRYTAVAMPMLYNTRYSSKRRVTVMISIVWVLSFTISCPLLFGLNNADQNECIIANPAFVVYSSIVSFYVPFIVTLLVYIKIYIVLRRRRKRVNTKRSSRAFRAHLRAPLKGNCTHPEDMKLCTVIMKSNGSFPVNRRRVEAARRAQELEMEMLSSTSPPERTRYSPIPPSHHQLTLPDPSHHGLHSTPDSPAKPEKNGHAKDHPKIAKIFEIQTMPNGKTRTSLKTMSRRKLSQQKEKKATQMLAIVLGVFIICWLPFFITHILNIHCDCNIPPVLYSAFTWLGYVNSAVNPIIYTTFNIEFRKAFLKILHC"},
  "source": "ChEMBL document CHEMBL1136643",
  "about": "“Identification of a novel series of selective 5-HT7 receptor antagonists” (Bioorg Med Chem Lett, 2003)",
  "molecular_target": "D(2) dopamine receptor (Homo sapiens, UniProt P14416)",
  "test": "Binding affinity towards cloned human dopamine D2 receptor was determined",
  "data": [
    {"smiles": "O=C1c2ccccc2CCCN1CCN1CCC(n2c(=O)[nH]c3cc(F)ccc32)CC1", "values": [
      {"measurement": "Ki", "result": 234, "unit": "nM"}
    ]}
  ]
}
